Source: patent EP1731520A1
pIC50: −log10 of the molar value.

Protein sequences, listed by entry. Tags and fused reporters are not part of them.
UniProt P30542, whole entry: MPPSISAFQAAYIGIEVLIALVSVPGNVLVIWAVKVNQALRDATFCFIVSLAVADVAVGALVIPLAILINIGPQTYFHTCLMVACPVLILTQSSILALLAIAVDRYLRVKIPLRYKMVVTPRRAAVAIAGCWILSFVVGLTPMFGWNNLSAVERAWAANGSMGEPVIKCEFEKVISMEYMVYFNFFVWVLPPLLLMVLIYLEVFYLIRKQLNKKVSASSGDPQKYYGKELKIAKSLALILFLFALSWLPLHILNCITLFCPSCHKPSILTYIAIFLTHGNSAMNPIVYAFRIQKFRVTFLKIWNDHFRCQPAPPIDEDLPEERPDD

Tests used:
[1] = biological target: human A1 adenosine receptor (Homo sapiens, UniProt P30542); assay: fus1-LacZ β-galactosidase assay in yeast expressing the A1 receptor; conditions: NECA concentration of 10^-8 M
[2] = biological target: human adenosine A1 receptor (Homo sapiens, UniProt P30542); conditions: read-out: Al Yeast IC50; Table 6, Effect of N6-Substituent

Row | pIC50 [2] | Structure (SMILES) | stimulation of β-galactosidase activity [1]
1 | – | CCNC(=O)[C@H]1O[C@@H](n2cnc3c(N)ncnc32)[C@H](O)[C@@H]1O [NECA, 5'-N-ethylcarboxamidoadenosine] | approximately 2 fold
2 | < 8.00 | Cc1[nH]c2nc(-c3ccccc3)nc(NC3CC[C@@H](O)[C@@H](O)C3)c2c1C (some centres unmarked) [Compound 602] | –
